Data reported in patent US4831029A, “Condensed cyclic triazole derivatives, pharmaceutical compositions and use” (priority 1986, dated 1989).

Assay: Spasmolytic effect (inhibition of tetracor spasms)
Format: in vivo
Source text: The following test methods are used: Motility inhibition test: J. Borsy, E. Csanyi, J. Lazar: J. Arch. Int. Pharmacodyn. 124, 1-2 (1960); Inhibition of tetracor spasms: R. Benzinger, D. Hane: Arch. Int Pharmacodyn. 167, 245-249 (1967).

Structure (SMILES): CN1C(=O)OC(C)(C)C1=O [Trimetadion, reference compound]
- Spasmolytic effect T.I. (therapeutical index): 4.3
